Laboratory results reported in ChEMBL document CHEMBL4613285, “Structural and in Vivo Characterization of Tubastatin A, a Widely Used Histone Deacetylase 6 Inhibitor” (ACS Med Chem Lett, 2020).

Experiments:
[1] = target: T1, Protein deacetylase HDAC6 (Mus musculus) (UniProt Q9Z2V5); conditions: C57BL/6, 10 mg/kg
T1 sequence (whole entry): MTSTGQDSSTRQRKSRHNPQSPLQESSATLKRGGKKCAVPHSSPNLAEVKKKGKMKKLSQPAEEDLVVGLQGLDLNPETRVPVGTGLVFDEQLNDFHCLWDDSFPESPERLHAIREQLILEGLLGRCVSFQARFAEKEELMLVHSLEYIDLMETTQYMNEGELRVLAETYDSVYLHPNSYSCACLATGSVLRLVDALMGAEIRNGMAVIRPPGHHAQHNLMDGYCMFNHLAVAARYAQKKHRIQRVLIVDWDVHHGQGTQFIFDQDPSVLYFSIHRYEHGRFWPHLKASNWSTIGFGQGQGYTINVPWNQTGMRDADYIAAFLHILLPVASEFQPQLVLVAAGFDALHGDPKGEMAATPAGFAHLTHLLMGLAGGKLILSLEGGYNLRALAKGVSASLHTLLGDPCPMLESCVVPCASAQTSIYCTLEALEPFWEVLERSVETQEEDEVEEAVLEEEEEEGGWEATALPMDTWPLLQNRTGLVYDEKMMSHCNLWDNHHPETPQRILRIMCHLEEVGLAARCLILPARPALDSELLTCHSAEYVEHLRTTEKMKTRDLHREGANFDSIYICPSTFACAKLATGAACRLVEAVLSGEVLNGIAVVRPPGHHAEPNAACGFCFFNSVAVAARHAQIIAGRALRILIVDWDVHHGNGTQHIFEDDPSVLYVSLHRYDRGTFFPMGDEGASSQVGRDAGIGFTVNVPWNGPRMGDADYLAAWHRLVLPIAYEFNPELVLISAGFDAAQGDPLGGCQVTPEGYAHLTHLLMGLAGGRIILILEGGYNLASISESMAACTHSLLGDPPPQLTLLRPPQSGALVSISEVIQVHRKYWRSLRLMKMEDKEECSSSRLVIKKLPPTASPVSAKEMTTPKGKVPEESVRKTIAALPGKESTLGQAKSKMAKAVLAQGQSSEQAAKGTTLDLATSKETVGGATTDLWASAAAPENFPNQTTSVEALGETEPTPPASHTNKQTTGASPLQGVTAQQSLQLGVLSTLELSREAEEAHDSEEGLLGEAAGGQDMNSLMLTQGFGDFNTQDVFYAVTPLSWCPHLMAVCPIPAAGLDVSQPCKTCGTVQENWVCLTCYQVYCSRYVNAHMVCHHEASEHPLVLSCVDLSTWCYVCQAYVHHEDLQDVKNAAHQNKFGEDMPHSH

[2] = target: T1, Protein deacetylase HDAC6 (Mus musculus); assay: In vivo inhibition of HDAC6 in C57BL/6 mouse cortex assessed as increase in alpha tubulin acetylation at 20 mg/kg, ip administered bid with interval of 4 hrs and measured after 1.5 hrs of last dosage by Western blot analysis; assay type: functional, organism-based
Summary of the method: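 Adult male C57BL/6 mice got two IP injections of 20 mg/kg, 4 h apart, and were killed 1.5 h after the second. Cortical homogenates were Western blotted (n = 3–4 per group) for acetylated α-tubulin/total tubulin densitometric ratio, normalized to vehicle-treated baseline (100%). Mean and standard deviation are reported; significance versus vehicle at p < 0.05 or p < 0.01.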

[3] = target: T1, Protein deacetylase HDAC6 (Mus musculus); conditions: C57BL/6, 10 mg/kg; remark: listed apart in the source

inhibition [1]: inactive
Activity [2]: Active
inhibition [3]: Active
Structure (SMILES): CN1CCc2c(c3ccccc3n2Cc2ccc(C(=O)NO)cc2)C1 [TUBASTATIN A]

Activity calls are given as the source filed them. No cut-off for these calls is given here.
